The list shows a part of the results, in another mix than the full data. Active and inactive are the calls of the source.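 Rule for the calls: active = inhibition above the screen mean inhibition plus 3 SD, computed separately per campaign (cut at about 18% in these data); inactive = the rest.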

The subject of this experiment is Fam108B (ABHD17B) serine hydrolase [Mus musculus]. Description: mouse Fam108B serine hydrolase inhibitors, primary screen, counter-screen for RBBP9 inhibitor project, biochemical, fluorescence polarization (AID 1947).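 Note: inhibitors lower polarization as less probe binds the enzyme.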 The note with it: recombinant Fam108B, FP-Rh probe fluorescence polarization; at 9.51 µM; stronger effect = higher value. On the technique in general: A counterscreen serves to expose hits that act by an unwanted route or on another target.
As to `N#CCCN(C(=O)COC(=O)C(O)(c1ccccc1)c1ccccc1)c1ccc(F)cc1`, the inhibition – broadly, the drop in the measured response relative to a control, in per cent – was inactive: -0.63%.

For the compound `CN(C(=O)Cc1ccccc1)[C@@H]1CC[C@]2(CCCO2)C[C@H]1N1CCCC1`, the inhibition is inactive: 4.63%.

Take `CCOP1(=S)c2c(C)nn(CCC#N)c2N=C(c2ccc(F)cc2)N1C` (stereo not given): the inhibition was inactive: 2%.

Consider `O=[N+]([O-])c1ccc2c(c1)nnn2O`, for which the inhibition is inactive: 5.87%.

In the case of `CN(C)C(=O)c1cc([N+](=O)[O-])cc2c1-c1c(cc([N+](=O)[O-])cc1[N+](=O)[O-])C2=O`, the inhibition is active: 40.3%.

In the case of `CN(C(=O)Cc1ccc(Cl)c(Cl)c1)[C@H]1CC[C@@]2(CCCO2)C[C@@H]1N1CCCC1`, the inhibition is inactive: 0.72%.

Regarding `NC(=O)Nc1ccc([As](=O)(O)O)cc1`, the inhibition was inactive: -1.57%.

On to `Nc1ccccc1[As](=O)(O)c1ccccc1`, for which the inhibition was inactive: -0.7%.

Regarding `O=C(O)COc1ccc([As](=O)(O)O)cc1[N+](=O)[O-]`, the inhibition is inactive: -0.13%.

Regarding `CCOP1(=S)c2c(C)nn(CCC#N)c2N=C(c2ccccc2F)N1C` (stereo not given), the inhibition was inactive: -2.71%.

`O=P(Nc1nccs1)(Oc1ccccc1)Oc1ccccc1`: the inhibition was inactive: 1.2%.

As to `O=P(Nc1nccs1)(c1ccccc1)c1nc2ccccc2s1` (stereo not given), the inhibition was inactive: -3.19%.

`CS(=O)(=O)c1cc([N+](=O)[O-])c2no[n+]([O-])c2c1`: the inhibition is inactive: 2.08%.

Consider `COc1cc(C2NCCC3(OCCO3)C2(C)C)cc(OC)c1OC` (stereo not given), for which the inhibition was inactive: -2.36%.

With `CCOP(=O)(Nc1cccc2ccccc12)OCC`, the inhibition is inactive: 0.57%.

Take `Cc1ccc(NCCc2c([N+](=O)[O-])cc([N+](=O)[O-])cc2[N+](=O)[O-])cc1`: the inhibition is inactive: 7.26%.

`Nc1cccc2c([As](=O)(O)O)cccc12`: the inhibition is active: 35.6%.

In the case of `CCCOP(=S)(Nc1nc(N)cc(=O)[nH]1)OCCC`, the inhibition was inactive: -6.56%.

With `Cc1cccc(OCC(=O)OC2CN3CCC2CC3)c1` (stereo not given), the inhibition is inactive: 3.63%.

In the case of `O=[As](O)(c1cccc(O)c1)c1cccc(O)c1`, the inhibition is inactive: 1.02%.

As to `O=C(OC1CN2CCC1CC2)c1ccc(Cl)cc1` (stereo not given), the inhibition was inactive: -1.16%.

On to `O=[As](O)(O)c1cccnc1`, for which the inhibition is inactive: 2.3%.

In the case of `COc1cc(C(=O)NCC2(N3CCOCC3)CCCCC2)cc(Cl)c1OC(C)C`, the inhibition was inactive: 4.19%.

Turning to `CS(=O)(=O)c1ccc(Cl)c(NC(=O)COC(=O)C(O)(c2ccccc2)c2ccccc2)c1`, the inhibition is inactive: -3.29%.

As to `CC(C)/C=N\N=C(\N)N[N+](=O)[O-]`, the inhibition was inactive: 0.86%.

In the case of `CN(C(=O)Cc1ccc(Cl)c(Cl)c1)[C@@H]1CCCC[C@H]1N1CCCC1`, the inhibition is inactive: 1.55%.

For `O=[As](O)(c1ccccc1Br)c1ccccc1Br`, the inhibition is inactive: -1.45%.

`CC1(CBr)Cn2c(nc3ccccc3c2=O)S1` (stereo not given): the inhibition was inactive: -4.1%.

For `COc1ccccc1CNC(=O)COC(=O)C(O)(c1ccccc1)c1ccccc1`, the inhibition is inactive: -3.58%.

For `Clc1n[nH]nc1-c1nn[nH][15n]1`, the inhibition is inactive: 0.34%.

On to `CC(C)(C)C(=O)NC(Sc1ncccn1)C(Cl)(Cl)Cl` (stereo not given), for which the inhibition was inactive: -2.17%.

In the case of `O=P1(Nc2ccccn2)COc2ccccc2OC1`, the inhibition was inactive: -0.66%.

As for `CCC1=CC2Cc3nc4ccc(Cl)cc4c(N)c3C(C1)C2` (stereo not given), the inhibition is inactive: 0.28%.

`CCOP(=O)(NC(=NC(C)c1ccccc1)NC(C)c1ccccc1)OCC` (stereo not given): the inhibition was inactive: 1.65%.

As for `CCOP(=O)(Nc1ccc(C)cn1)OCC`, the inhibition is inactive: 4.46%.

Regarding `CN(CCCl)Cc1cc(Cl)c(NC2=NCCN2)c(Cl)c1`, the inhibition was inactive: 0.94%.

With `Nc1cccc([As](=O)(O)c2ccccc2)c1`, the inhibition is inactive: 0.39%.

For `Cc1ccc(OCC(=O)OC2CN3CCC2CC3)cc1` (stereo not given), the inhibition was inactive: 5.17%.

Regarding `O=[As](O)(c1cccs1)c1cccs1`, the inhibition is inactive: 4.96%.

Consider `O=P1(Nc2ccc(Br)cn2)COc2ccccc2OC1`, for which the inhibition was inactive: 1.94%.

With `O=P1(Nc2ncccn2)COc2ccccc2OC1`, the inhibition was inactive: 1.49%.

On to `CN(C)C1(CNC(=O)c2ccc(S(C)(=O)=O)cc2)CCCCC1`, for which the inhibition is inactive: 1.11%.

Regarding `O=C(/C=C/c1ccccc1)OC1CN2CCC1CC2` (stereo not given), the inhibition was inactive: 1.05%.

Take `Cc1nn(-c2ccccc2)c2c1P(=O)(N1CCOCC1)N(C)C(c1ccccc1)=N2` (stereo not given): the inhibition was inactive: 6.1%.

For the compound `CC1CCC(C(C)C)C(OP(=O)(Nc2ccccn2)c2ccccc2)C1` (stereo not given), the inhibition is inactive: -6.67%.

For `Cc1ccc(C(=O)OC2CN3CCC2CC3)cc1` (stereo not given), the inhibition was inactive: 0.06%.

As for `O=P(Nc1ccccn1)(c1cccc2ccccc12)c1cccc2ccccc12`, the inhibition is inactive: 0.99%.

In the case of `Cc1cc(SC(NC=O)C(Cl)(Cl)Cl)ncn1` (stereo not given), the inhibition was inactive: 0.05%.

`CCOC(=O)Nc1cccc([As](=O)(O)O)c1`: the inhibition was inactive: 3.09%.

Take `Cc1cc(SC(NC(=O)c2ccccc2)C(Cl)(Cl)Cl)nc(C(C)C)n1` (stereo not given): the inhibition is inactive: 2.34%.

As for `CCOC(=O)Nc1ccc([As](=O)(O)O)c(O)c1`, the inhibition was inactive: 3.15%.

`CCC(C)N(CC(C)C)C(=S)SC(NC(C)=O)C(Cl)(Cl)Cl` (stereo not given): the inhibition is inactive: 2.7%.

With `O=C(OC1CN2CCC1CC2)c1cccc([N+](=O)[O-])c1` (stereo not given), the inhibition is inactive: -1.49%.

In the case of `CCOC(=O)c1ccc(NC(=O)C(C)(CCl)SC)cc1` (stereo not given), the inhibition was inactive: -3.82%.

Turning to `O=C(COc1ccccc1)OC1CN2CCC1CC2` (stereo not given), the inhibition was inactive: -2.89%.

For `O=C(Nc1ccncc1[N+](=O)[O-])c1ccc([N+](=O)[O-])cc1[N+](=O)[O-]`, the inhibition was inactive: 2.49%.

As for `COP1(=S)c2c(C)nn(CCC#N)c2N=C(c2ccc(F)cc2)N1C` (stereo not given), the inhibition was inactive: -0.75%.

For the compound `COc1ccc(N/C(=N/P(=O)(N2CCOCC2)N2CCOCC2)N2CCOCC2)cc1`, the inhibition was inactive: 0.98%.

Consider `COc1ccc2nc(NP(=O)(c3ccccc3)c3ccccc3)sc2c1`, for which the inhibition is inactive: -3.99%.

As for `COc1cc(I)ccc1[As](=O)(O)O`, the inhibition is inactive: 0.08%.

`Cc1c2c(nc3ccccc13)SC(C(Cl)Cl)C2` (stereo not given): the inhibition is inactive: -2.29%.

`O=C(OC1CN2CCC1CC2)C12CC3CC(CC(C3)C1)C2` (stereo not given): the inhibition was inactive: 6.99%.

Take `Cc1cc(=O)[nH]c(N[N+](=O)[O-])n1`: the inhibition is inactive: -2.06%.

As for `CC(C)NC(=O)NP(=O)(Oc1ccccc1)Oc1ccccc1`, the inhibition is inactive: -2.81%.

Turning to `CCN(CC)C(=S)SC(NC=O)C(Cl)(Cl)Cl` (stereo not given), the inhibition is inactive: 0.67%.

Values taken from PubChem BioAssay AID1947 (The Scripps Research Institute Molecular Screening Center, 2009).
